Measurements taken from patent US9605029B2, “Antibody-binding peptide” (NATIONAL INSTITUTE OF ADVANCED INDUSTRIAL SCIENCE AND …, priority 2013, dated 2017).

Target: T1, Fc region prepared by digesting human monoclonal antibody IgG with papain (Homo sapiens, UniProt P01857)
T1 construct: The Fc region to be immobilized to a sensor chip was prepared, by digesting human monoclonal antibody IgG with papain; made in house; host or cells: papain digest of human monoclonal IgG (Pierce Fab Preparation Kit), then MabSelect SuRe, HiTrap DEAE and Superdex 200
Assay: Surface plasmon resonance, polypeptides on immobilized Fc region prepared from human monoclonal IgG (Example 2, 3) and 4); Example 8)
Format: binding
Procedure: 3) In this section, it will be stated as an example that the binding activity of polypeptides consisting of amino acid sequences of SEQ ID NOs: 24 to 27 (referred to as pep14, pep11, pep21 and pep24, respectively) was measured by surface plasmon resonance. The polypeptides, which were previously synthesized in an organic chemical manner were purchased from bioSYNTHESIS, were diluted with HBS-T buffer and controlled so as to have a concentration of 500, 400, 300, 200 or 100 nM. The surface plasmon resonance test was performed by using Biacore T100 (GE Healthcare). […] The binding activity of the synthesized peptides prepared was measured and equilibrium dissociation constants were determined. […]
4) In this section, it will be stated as an example that the binding activity of a polypeptide consisting of an amino acid sequence (referred to as p17) of SEQ ID NO: 57 was measured by surface plasmon resonance. […]
Subsequently, the binding activity of p17 prepared was measured by surface plasmon resonance by use of Biacore T100 (GE Healthcare). […]
Subsequently, the binding activity of five types of polypeptides prepared above was analyzed by surface plasmon resonance. […] An Fc region was immobilized to Sensor Chip CM5 (GE Healthcare) and binding activity was analyzed in the same manner as in Example 2, 4). […]

| Kd (variant polypeptide with alanine substitution, read-out: Equilibrium dissociation constant of p17 variant KD) [nM] | Compound | Kd (synthetic polypeptide, read-out: equilibrium dissociation constants KD) [nM] |
| --- | --- | --- |
| 180 | CC[C@H](C)[C@H](NC(=O)CNC(=O)[C@@H]1CCCN1C(=O)CN)C(=O)N[C@@H](CO)C(=O)N[C@@H](C)C(=O)N[C@@H](Cc1ccccc1)C(=O)N[C@@H](CO)C(=O)N1CCC[C@H]1C(=O)NCC(=O)N[C@@H](CCCNC(=N)N)C(=O)NCC(=O)N[C@H](C(=O)N[C@@H](Cc1ccc(O)cc1)C(=O)N[C@@H](CC(=O)O)C(=O)N1CCC[C@H]1C(=O)N[C@@H](CCC(=O)O)C(=O)N[C@H](C(=O)NCC(=O)N[C@H](C(=O)N[C@@H](Cc1c[nH]c2ccccc12)C(=O)N[C@@H](Cc1ccc(O)cc1)C(=O)N[C@@H](CC(=O)O)C(=O)N[C@@H](C)C(=O)N[C@@H](C)C(=O)N[C@@H](Cc1c[nH]c2ccccc12)C(=O)N[C@@H](Cc1c[nH]cn1)C(=O)N[C@@H](CC(C)C)C(=O)NCC(=O)N[C@@H](CCC(=O)O)C(=O)N[C@@H](CC(C)C)C(=O)N[C@H](C(=O)N[C@@H](Cc1c[nH]c2ccccc12)C(=O)N[C@@H](C)C(=O)N[C@H](C(=O)N[C@@H](Cc1ccc(O)cc1)C(=O)N[C@@H](Cc1ccc(O)cc1)C(=O)N[C@@H](CC(=O)O)C(=O)N1CCC[C@H]1C(=O)N[C@@H](CCC(=O)O)C(=O)N[C@H](C(=O)NCC(=O)N[C@H](C(=O)N[C@@H](Cc1c[nH]c2ccccc12)C(=O)N[C@@H](CCC(=O)O)C(=O)N1CCC[C@H]1C(=O)N[C@@H](CC(=O)O)C(=O)N[C@@H](Cc1c[nH]c2ccccc12)C(=O)N[C@@H](CCC(N)=O)C(=O)N[C@@H](CCCNC(=N)N)C(=O)N[C@@H](C)C(=O)N[C@@H](CC(C)C)C(=O)NCC(=O)N[C@@H](CCC(N)=O)C(=O)O)[C@@H](C)O)[C@@H](C)O)[C@@H](C)O)C(C)C)[C@@H](C)O)[C@@H](C)O)C(C)C [SEQ ID NO: 178] |  |
|  | CSCC[C@H](NC(=O)[C@H](CCCNC(=N)N)NC(=O)[C@H](CCC(N)=O)NC(=O)[C@H](Cc1c[nH]c2ccccc12)NC(=O)[C@H](CC(=O)O)NC(=O)[C@@H]1CCCN1C(=O)[C@H](CCC(=O)O)NC(=O)[C@H](Cc1c[nH]c2ccccc12)NC(=O)[C@@H](NC(=O)CNC(=O)[C@@H](NC(=O)[C@H](CCC(=O)O)NC(=O)[C@@H]1CCCN1C(=O)[C@H](CC(=O)O)NC(=O)[C@H](Cc1ccc(O)cc1)NC(=O)[C@H](Cc1ccc(O)cc1)NC(=O)[C@@H](NC(=O)[C@H](C)NC(=O)[C@H](Cc1c[nH]c2ccccc12)NC(=O)[C@@H](NC(=O)[C@H](CC(C)C)NC(=O)[C@H](CCC(=O)O)NC(=O)CNC(=O)[C@H](CC(C)C)NC(=O)[C@H](Cc1c[nH]cn1)NC(=O)[C@H](Cc1c[nH]c2ccccc12)NC(=O)[C@H](C)NC(=O)[C@H](C)NC(=O)[C@@H](N)CC(=O)O)C(C)C)[C@@H](C)O)[C@@H](C)O)[C@@H](C)O)C(=O)N[C@@H](CC(C)C)C(=O)NCC(=O)N[C@@H](CCC(N)=O)C(=O)O [SEQ ID NO: 27] | 220 |

Where two headings read alike, the source gives them in different places.
